The target in this test is Angiotensin Converting Enzyme (ACE) (Homo sapiens, UniProt P12821). Nature of the test: At-line ACE assay (HHL hydrolysis, flash-HPLC read-out). The format is biochemical. An excerpt:
MAP and ITP as novel ACE inhibiting peptides were identified in samples by using 2-dimensional-chromatographic-separation combined with an at-line ACE activity assay and mass spectrometry for identification. In the first analysis the peptide mixture is separated on an ODS3 liquid chromatography (LC) column. An activity profile is created from fractions collected from the analysis using a slightly modified Matsui assay. In the second analysis the fractions from the first column showing a high activity are further separated on a Biosuite LC column using a different gradient profile. The fractions collected from this second column are split into two parts, one part is used for the activity measurement while MS and MS-MS is applied on the other part for identification of the peptides present.
20 μl of a 10% (w/v) solution of PH in Milli-Q water was injected on a 150×2.1 Inertsil 5 ODS3 column with a particle size of 5 μm (Varian, Middelburg, the Netherlands). Mobile phase A consisted of a 0.1% trifluoroacetic acid (TFA) solution in Milli-Q water. Mobile phase B consisted of a 0.1% TFA solution in acetonitrile. The initial eluent composition was 100% A. The eluent was kept at 100% A for 5 minutes. Then a linear gradient was started in 10 minutes to 5% B, followed by a linear gradient in 10 minutes to 30% B. The column was flushed by raising the concentration of B to 70% in 5 minutes, and was kept at 70% B for another 5 minutes. After this the eluent was reduced to 100% A in 1 minute and equilibrated for 9 minutes. The total run time was 50 minutes. The effluent flow was 0.2 ml min^−1 and the column temperature was set at 60° C. A UV chromatogram was recorded at 215 nm. […] After the reaction the plate was cooled in melting ice and analysed on a flash-HPLC-column. […] Hippuric acid (H) and HHL were monitored at 280 nm. The peak heights of H and HHL were measured and the ACEI of each fraction was calculated according to the equation: […]
The degree of hydrolysis (DH) was calculated by expressing the peak height of H as a fraction of the sum of the peak heights of H and HHL.

The chains behind the UniProt entries cited, without tags or fusion partners. Residues count along the entry.
UniProt P12821, 30-1306, species assumed: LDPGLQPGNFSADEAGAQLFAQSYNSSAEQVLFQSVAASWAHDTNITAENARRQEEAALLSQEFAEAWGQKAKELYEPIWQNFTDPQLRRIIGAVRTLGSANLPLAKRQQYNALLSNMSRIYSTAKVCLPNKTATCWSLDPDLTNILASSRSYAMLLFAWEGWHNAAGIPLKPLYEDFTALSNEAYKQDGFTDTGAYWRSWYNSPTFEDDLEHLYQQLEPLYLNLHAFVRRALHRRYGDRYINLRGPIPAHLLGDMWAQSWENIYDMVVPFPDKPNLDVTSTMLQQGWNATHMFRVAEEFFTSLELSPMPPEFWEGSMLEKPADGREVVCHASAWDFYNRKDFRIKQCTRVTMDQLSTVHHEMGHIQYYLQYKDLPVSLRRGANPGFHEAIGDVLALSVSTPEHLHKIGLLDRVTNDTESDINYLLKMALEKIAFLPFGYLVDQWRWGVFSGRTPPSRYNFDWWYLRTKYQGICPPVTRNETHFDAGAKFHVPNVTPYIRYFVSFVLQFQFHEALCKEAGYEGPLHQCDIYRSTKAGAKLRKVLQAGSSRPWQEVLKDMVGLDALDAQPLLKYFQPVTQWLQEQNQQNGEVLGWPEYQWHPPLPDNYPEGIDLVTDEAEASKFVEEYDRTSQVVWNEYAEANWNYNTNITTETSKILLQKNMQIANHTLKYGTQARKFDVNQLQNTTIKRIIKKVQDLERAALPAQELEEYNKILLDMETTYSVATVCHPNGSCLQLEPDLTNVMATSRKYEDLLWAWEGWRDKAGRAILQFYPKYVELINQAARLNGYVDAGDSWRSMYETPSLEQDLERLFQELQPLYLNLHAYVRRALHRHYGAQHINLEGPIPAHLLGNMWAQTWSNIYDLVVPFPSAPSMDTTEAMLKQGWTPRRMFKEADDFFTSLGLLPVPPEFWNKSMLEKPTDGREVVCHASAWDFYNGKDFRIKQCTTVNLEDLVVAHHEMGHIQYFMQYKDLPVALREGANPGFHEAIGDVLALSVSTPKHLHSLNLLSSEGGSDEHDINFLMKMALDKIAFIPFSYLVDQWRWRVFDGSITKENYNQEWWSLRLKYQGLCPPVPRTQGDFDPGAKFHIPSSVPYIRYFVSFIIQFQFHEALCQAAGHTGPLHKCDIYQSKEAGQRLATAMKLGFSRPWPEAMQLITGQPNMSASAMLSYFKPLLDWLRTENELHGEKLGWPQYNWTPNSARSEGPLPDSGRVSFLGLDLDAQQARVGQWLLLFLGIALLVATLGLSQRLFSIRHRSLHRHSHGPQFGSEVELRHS

Take `CC[C@H](C)[C@H](N)C(=O)N[C@H](C(=O)N1CCC[C@H]1C(=O)O)[C@@H](C)O` [ITP, Ile-Thr-Pro]: the IC50 worked out at 50 µM.
The same measure for `CSCC[C@H](N)C(=O)N[C@@H](C)C(=O)N1CCC[C@H]1C(=O)O` [MAP, Met-Ala-Pro]: 3.8 µM.

The IC50 is the concentration needed to halve the response being measured.

(Values after US20090304869A1, “Peptides Having an Ace Inhibiting Effect” (priority 2005, published 2009).)
